# ChEMBL document CHEMBL5625255, “Discovery of a novel series of potent carbonic anhydrase inhibitors with selective affinity for μ Opioid receptor for Safer and long-lasting analgesia” (2023)
# Molecular target: Kappa-type opioid receptor (Cavia porcellus, UniProt P41144)
# Experiment: Displacement of [3H]-U69,593 from KOR in guinea pig brain membrane by liquid scintillation counter analysis
structure (smiles),measurement,value
NC(=O)C1(Nc2ccccc2)CCN(CCc2ccc(S(N)(=O)=O)cc2)CC1,Ki,> 2000 nM
